Data published in patent US6337344B1, “Indole derivatives as inhibitors or factor Xa” (Aventis Pharma Deutschland GmbH, priority 1997, dated 2002).

Protein sequences, listed by entry. Tags and fused reporters are not part of them. Residues count along the entry.
UniProt P00742, 235-488 limits assumed: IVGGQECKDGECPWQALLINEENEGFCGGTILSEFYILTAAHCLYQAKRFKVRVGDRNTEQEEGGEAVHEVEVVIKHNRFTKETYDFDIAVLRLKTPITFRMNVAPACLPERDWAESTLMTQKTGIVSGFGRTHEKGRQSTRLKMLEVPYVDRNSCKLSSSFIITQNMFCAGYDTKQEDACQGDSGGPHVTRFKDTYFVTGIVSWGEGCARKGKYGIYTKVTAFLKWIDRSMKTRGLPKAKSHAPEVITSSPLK
UniProt P00742, 41-179 partner limits assumed: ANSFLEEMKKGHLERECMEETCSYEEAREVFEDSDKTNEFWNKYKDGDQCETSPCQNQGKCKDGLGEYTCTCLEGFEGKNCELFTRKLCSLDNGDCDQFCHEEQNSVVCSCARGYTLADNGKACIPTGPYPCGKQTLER

Each molecule was assayed against human factor Xa (Homo sapiens, UniProt P00742) (assay: Factor Xa assay (Test 1, a.), chromogenic substrate S-2765). Settings: read-out: Ki (Xa); purified human factor Xa 0.5 nM, substrate S-2765 140 μM, 25° C.; Ki from IC50 corrected for substrate competition; tested form: TFA.
Assay type: biochemical

| Ki [µM] | SMILES |
| --- | --- |
| 1.7 | N=C(N)c1cccc(Cn2c(C(=O)NCc3ccc4ccccc4c3)cc3c(O)cccc32)c1 |
| 110 | N=C(N)c1ccc(Cn2c(C(=O)O)cc3ccccc32)cc1 |
| 1.6 | N=C(N)c1cccc(Cn2c(C(=O)NCCc3ccc(Cl)cc3)cc3c(O)cccc32)c1 |
| 1.1 | N=C(N)c1cccc(Cn2c(C(=O)NCC3CCCCC3)cc3c(O)cccc32)c1 |
| 7.9 | Cc1cccc2c1cc(C(N)=O)n2Cc1cccc(C(=N)N)c1 |
| 3.3 | N=C(N)c1cccc(Cn2c(C(=O)NCc3ccccn3)cc3c(O)cccc32)c1 |
